Test results as given in PubChem BioAssay AID493162 (ICCB-Longwood Screening Facility, Harvard Medical School, 2011).
Only a part is listed here, and it is no random draw. Active and inactive are the calls of the source. No stated cut-off is given here; in the data, active means normalized absorbance mostly below about 85% (no sharp cut-off); inactive means mostly above about 86%.

test system: Vaccinia virus DNA polymerase (E9) processive complex; assay: vaccinia E9 polymerase processive synthesis inhibitors, primary screen, biochemical, absorbance (AID 493162); conditions: in vitro processive DNA synthesis, absorbance read-out; hits give low values; concentration not given here

| Structure (SMILES) | normalized absorbance |
| --- | --- |
| CN(CCCl)CCCl | inactive: 99.3% |
